ChEMBL document CHEMBL3804774, “Discovery of G Protein-Biased EP2 Receptor Agonists” (ACS Med Chem Lett, 2016)

Amino acid sequences for entries named in this document (tags omitted). A change or cut given only in a name is not applied to a line headed by its entry.
UniProt P43116: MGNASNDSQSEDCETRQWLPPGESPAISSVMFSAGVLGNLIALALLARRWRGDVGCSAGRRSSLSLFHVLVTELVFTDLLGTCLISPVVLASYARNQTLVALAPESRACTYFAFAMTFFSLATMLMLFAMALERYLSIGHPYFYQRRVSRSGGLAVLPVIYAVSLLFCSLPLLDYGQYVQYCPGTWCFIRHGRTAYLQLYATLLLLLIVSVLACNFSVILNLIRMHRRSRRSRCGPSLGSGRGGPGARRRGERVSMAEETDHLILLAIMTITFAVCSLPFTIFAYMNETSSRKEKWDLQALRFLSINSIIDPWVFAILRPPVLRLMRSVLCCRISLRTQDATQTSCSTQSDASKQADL

Tests used:
[1] = molecular target: T1, Prostaglandin E2 receptor EP2 subtype (Homo sapiens, UniProt P43116); assay: Agonist activity at human EP2 receptor expressed in CHO cells assessed as increase in intracellular cAMP level after 30 mins by HTRF method; format: functional, cell-based
[2] = molecular target: T1, Prostaglandin E2 receptor EP2 subtype; assay: Agonist activity at PK2-tagged human EP2 receptor expressed in HEK293 cells assessed as induction of EA-tagged beta-arrestin recruitment incubated for 90 mins by beta-galactosidase reporter gene assay; format: cell-based

- EC50 [1]: 1.9 nM
- EC50 [2]: 346 nM
SMILES: CCCCC[C@H](O)/C=C/[C@H]1[C@H](O)CC(=O)[C@@H]1C/C=C\CCCC(=O)O [DINOPROSTONE]
